Compound activity as filed in PubChem BioAssay.
The list is not random: actives were taken first. Their share in the collection is about 16%.
TDP1 cell CPT = growth inhibition of DT40 Tdp1-/-;hTDP1 cells with camptothecin (screen for TDP1 inhibitors); AID 686979; chicken DT40 Tdp1-/-;hTDP1 cells + 20 nM CPT, ATP luminescence, 48 h; hit rate 12% among 420,000; Potency, µM (highest dose often 46.2 µM), for the others: at the top dose activity change, negative = growth inhibition, most hits filed as inhibitors; further: potency means the concentration at half of the fitted maximal effect; on the % scale 0 is the no-effect control and ±100 the full control effect; nearly all actives have a fitted effect of over 55% in size
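Chicken DT40 Tdp1-/- cells stably complemented with human TDP1 were seeded at 400 cells/well in medium containing 20 nM camptothecin, exposed to pin-transferred compounds, and grown at 37 °C for at least 48 hr. Viability was read as ATP luminescence.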
miR-21 reporter = miR-21 reporter, rising signal | AID 2288 | HeLa miR-21 FLuc reporter, luciferase, 48 h | 340,000 tested, under 10 active | Potency, µM (titrated, usually from 38.3 µM), for the others: at the top dose reporter change, positive = more light; active = well fitted rising curve with a large enough effect; inconclusive = small, poorly fitted or top-dose-only effect; inactive = no such curve, though single readings can be large or run the other way;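 also: % of control where 0% means no effect; miR-21 action dims this reporter so a rising signal means less miR-21 action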
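HeLa cells endogenously expressing miR-21, stably carrying CMV-driven firefly luciferase with a downstream miR-21 binding site, 2000 cells/well. Titrations up to approximately 40 uM, 48 hours; luciferase luminescence read.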
uPA generation = blocks generation of uPA at the cell surface; cell surface uPA generation assay, qHTS; Potency, µM (doses to about 38.3 µM), for the others: at the highest dose activity change, negative = inhibition, hits mostly inhibitors; hit rate 0.31% among 330,000; active means well fitted inhibition curve with a large enough effect; inconclusive means small, poorly fitted or top-dose-only effect; inactive means no such curve, though single readings can be large or run the other way; tested in mouse RAW 264.7 cells; further: potency means the concentration at half of the fitted maximal effect; on the % scale 0 is the no-effect control and ±100 the full control effect; nearly all actives have a fitted effect of over 55% in size
TDP1 inh = TDP1 (human) enzyme inhibition | hit rate 0.28% among 350,000 | recombinant TDP1, AlphaScreen DNA substrate cleavage | Potency, µM (doses to about 130 µM), for inactives: at the highest dose activity change, negative = inhibition, most hits filed as inhibitors | AID 485290; further: potency means the concentration at half of the fitted maximal effect; on the % scale 0 is the no-effect control and ±100 the full control effect; nearly all actives have a fitted effect of over 40% in size
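Signal: AlphaScreen proximity between streptavidin donor and anti-FITC acceptor beads on intact substrate. Reaction: Tdp1 1 nM, substrate 15 nM final, 5 min RT after 15 min compound preincubation.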
DT40 TDP1 no CPT = qHTS for Inhibitors of human tyrosyl-DNA phosphodiesterase 1 (TDP1): qHTS in cells in absence of CPT. DT40 Tdp1-/- hTDP1 cells, no CPT, ATP luminescence, 48 h. Potency, µM (doses to about 46.2 µM), inactives show at the top dose activity change, negative = growth inhibition, most hits filed as inhibitors. hit rate 15% among 420,000; further: potency means the concentration at half of the fitted maximal effect; on the % scale 0 is the no-effect control and ±100 the full control effect; nearly all actives have a fitted effect of over 55% in size
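A cellular qHTS used chicken DT40 cells lacking endogenous Tdp1 but carrying stably transfected human TDP1. Compounds were applied without camptothecin, and cell growth kinetics were judged by ATP-dependent luminescence after ≥48 hr.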
* marks the source's active call; other numbers are inactive results; ? = inconclusive; / = no result. Unless noted, the call rests on the fitted dose curve; in most records, active means well fitted curve in the direction sought with a large enough effect; inconclusive means small, poorly fitted or top-dose-only effect, or another doubt; inactive means no such curve, though single readings can be large; an effect the other way counts as inactive or inconclusive.

(1) CC(=O)C1=C(O)C=C2Oc3c(C(C)=O)c(O)c(C)c(O)c3[C@]2(C)C1=O
(2) CSc1ccc(N/N=C(/C#N)S(=O)(=O)C(C)(C)C)cc1
(3) Cc1cc(C)cc(-n2c(SCC(=O)NC3CCCCC3)nc3c([nH]c4ccccc43)c2=O)c1
(4) CCOc1ccc(-n2c(SCC(=O)NC3CCCCC3)nc3c([nH]c4ccccc43)c2=O)cc1
(5) O=C(CSc1nc2c([nH]c3ccccc32)c(=O)n1-c1ccc(Cl)cc1)NC1CCCCC1
(6) CNc1nc(Oc2ccc(=O)[nH]n2)nc(N2CCOCC2)n1
(7) CCNc1nc(SCCOc2ccc(C)cc2)nc(N(C)C)n1
(8) COc1ccc(CCNC(=O)C(=O)NCC2OCCN2S(=O)(=O)c2ccc(OC)cc2)cc1 (stereo not given)

assay / compound | 1 | 2 | 3 | 4 | 5 | 6 | 7 | 8
TDP1 cell CPT | 17% | ? | 16µM* | ? | 10µM* | -9% | 16µM* | -11%
uPA generation | / | 2% | / | / | / | / | -4% | -3%
miR-21 reporter | / | 5% | -3% | -5% | -8% | -4% | -4% | 16%
DT40 TDP1 no CPT | 3% | ? | ? | ? | 15µM* | -11% | 21µM* | -20%
TDP1 inh | 24% | 10% | 4% | 7% | 4% | 1% | -1% | /

(9) COc1cc(/C=N/Nc2nn3cnnc3c3ccccc23)ccc1O
(10) COc1cccc(/C=N/Nc2nn3cnnc3c3ccccc23)c1
(11) COc1ccc(N(CC(=O)Nc2ccc(S(=O)(=O)N3CCOCC3)cc2)S(=O)(=O)c2ccccc2)cc1
(12) COC(=O)c1ccc(Cl)c(NC(=O)CN(c2ccc(OC)cc2)S(=O)(=O)c2ccccc2)c1
(13) COC(=O)c1ccccc1NC(=O)CN(c1ccc(Cl)cc1)S(=O)(=O)c1ccc(OC)cc1
(14) COc1ccc(N(CC(=O)Nc2ccccc2OC)S(=O)(=O)c2ccc(NC(C)=O)cc2)cc1
(15) COC(=O)c1cc(NC(=O)CN(c2ccc(OC)cc2)S(=O)(=O)c2ccc(F)cc2)ccc1Cl
(16) O=C(Nc1ccc(S(=O)(=O)Nc2ncccn2)cc1)c1cc([N+](=O)[O-])ccc1Cl

assay / compound | 9 | 10 | 11 | 12 | 13 | 14 | 15 | 16
TDP1 cell CPT | 7.3µM* | 13µM* | 16µM* | ? | 21µM* | 5.2µM* | 18µM* | -9%
uPA generation | ? | -5% | -11% | -1% | / | -11% | 0% | -3%
miR-21 reporter | -5% | -1% | 7% | / | 2% | 17% | ? | 3%
DT40 TDP1 no CPT | ? | 21µM* | 18µM* | ? | 9.2µM* | 5.2µM* | 18µM* | -21%
TDP1 inh | 6% | -5% | 5% | / | / | 5% | 7% | /

(17) Cc1ccc(OC(=S)Nc2ccccc2)c(C)c1
(18) CCOc1ccc(NC(=O)CN2CCN(CC(=O)Nc3ccccc3OC)CC2)cc1
(19) COc1ccccc1NC(=O)CN1CCN(CC(=O)Nc2ccccc2Cl)CC1
(20) CCN(CC)c1ccc(NC(=O)CN2CCN(c3nc(C)cc(C)n3)CC2)cc1
(21) CCN(CC)c1ccc(NC(=O)CN2CCN(c3ccc(F)cc3)CC2)cc1
(22) COc1ccccc1NC(=O)CN1CCN(c2ccccc2F)CC1
(23) COc1ccccc1NC(=O)CN1CCN(c2ccc(Cl)cc2)CC1
(24) CCN(CC)c1ccc(NC(=O)CN2CCN(CC(=O)Nc3ccccc3OC)CC2)cc1

assay / compound | 17 | 18 | 19 | 20 | 21 | 22 | 23 | 24
TDP1 cell CPT | ? | ? | 25% | ? | ? | 21µM* | 21µM* | 23µM*
uPA generation | -1% | 4% | 7% | -6% | 3% | 1% | -5% | -3%
miR-21 reporter | -5% | -1% | 0% | 25% | -4% | -6% | -2% | 3%
DT40 TDP1 no CPT | 16µM* | ? | -20% | 16µM* | ? | ? | 16µM* | ?
TDP1 inh | -2% | / | / | 0% | 11% | -1% | 0% | 7%

Arranged by length of the SMILES (smallest number first): some entries from above.
(17) Cc1ccc(OC(=S)Nc2ccccc2)c(C)c1
(22) COc1ccccc1NC(=O)CN1CCN(c2ccccc2F)CC1
(19) COc1ccccc1NC(=O)CN1CCN(CC(=O)Nc2ccccc2Cl)CC1

assay / compound | 17 | 22 | 19
TDP1 cell CPT | ? | 21µM* | 25%
uPA generation | -1% | 1% | 7%
miR-21 reporter | -5% | -6% | 0%
DT40 TDP1 no CPT | 16µM* | ? | -20%
TDP1 inh | -2% | -1% | /

Next records.
(25) CCN(CC)S(=O)(=O)c1cc([N+](=O)[O-])ccc1N=Nc1c(O)[nH]c2ccccc12
(26) CCSc1nnc(Nc2ccc(C)cc2)s1
(27) CC(OC(=O)c1ncc(Cl)c(Cl)c1Cl)C(=O)NC1CCCCC1C (stereo not given)
(28) CCC(=O)C1=C(c2cccc(OC)c2)N(C(=O)CC)n2c(nnc2C2CCCCC2)S1
(29) CCC(=O)C1=C(c2ccc(OC)c(OC)c2)N(C(=O)CC)n2c(nnc2-c2ccc(C)cc2)S1
(30) CC(=O)C1=C(c2ccccc2)N(C(C)=O)n2c(nnc2C2CCCCC2)S1
(31) COc1cccc(C2=C(C(C)=O)Sc3nnc(C4CCCCC4)n3N2C(C)=O)c1
(32) CC(=O)C1=C(c2ccc(Cl)c(Cl)c2)N(C(C)=O)n2c(nnc2C2CCCCC2)S1

assay / compound | 25 | 26 | 27 | 28 | 29 | 30 | 31 | 32
TDP1 cell CPT | -19% | 3% | 12% | 8.2µM* | -3% | ? | 7.3µM* | ?
uPA generation | -1% | / | 4% | / | / | / | / | /
miR-21 reporter | -1% | -44% | / | ? | 11% | -5% | ? | 0%
DT40 TDP1 no CPT | -29% | 4% | 0% | 12µM* | -25% | 4.6µM* | 12µM* | -27%
TDP1 inh | 3% | 4% | 17% | 0% | 0% | 3% | 0% | -5%

(33) CCC(=O)C1=C(c2cccc([N+](=O)[O-])c2)N(C(=O)CC)n2c(nnc2-c2ccccc2)S1
(34) O=C1Nc2ccccc2OC1CC(=O)N1CCCC1 (stereo not given)
(35) COc1cccc(CC(=O)NNC(=O)c2c(-c3ccccc3)noc2C)c1
(36) CCOc1ccc(-n2nc(CO)c(C(=O)NCc3ccc(Cl)cc3)n2)cc1
(37) COc1ccc(CNC(=O)N2CCc3ccccc3C2)cc1
(38) CC(C)c1ccc(/C=C/C(=O)Nc2nncs2)cc1
(39) C/C(=N\NC(=S)NCc1ccccc1)c1ccc(Br)cc1
(40) C/C(=N\NC(=S)NCc1ccccc1)c1ccc(C)o1

assay / compound | 33 | 34 | 35 | 36 | 37 | 38 | 39 | 40
TDP1 cell CPT | 4.1µM* | -25% | -1% | -17% | -4% | ? | ? | ?
uPA generation | / | 3% | -12% | / | 0% | -4% | -18% | 5%
miR-21 reporter | -1% | -3% | -3% | -3% | -40% | -31% | -9% | -8%
DT40 TDP1 no CPT | 3.3µM* | -1% | -1% | -24% | ? | 13µM* | ? | 5.2µM*
TDP1 inh | 5% | -1% | 7% | 0% | / | 6% | 8% | 5%

Among those listed so far, three contain fluorine.
(15) COC(=O)c1cc(NC(=O)CN(c2ccc(OC)cc2)S(=O)(=O)c2ccc(F)cc2)ccc1Cl
(21) CCN(CC)c1ccc(NC(=O)CN2CCN(c3ccc(F)cc3)CC2)cc1
(22) COc1ccccc1NC(=O)CN1CCN(c2ccccc2F)CC1

assay / compound | 15 | 21 | 22
TDP1 cell CPT | 18µM* | ? | 21µM*
uPA generation | 0% | 3% | 1%
miR-21 reporter | ? | -4% | -6%
DT40 TDP1 no CPT | 18µM* | ? | ?
TDP1 inh | 7% | 11% | -1%

The listing continues.
(41) C/C(=N\NC(=S)NCc1ccccc1)c1ccc2c(c1)OCCO2
(42) C/C(=N\NC(=S)NCc1ccccc1)c1cccs1
(43) C/C(=N\NC(=S)Nc1ccc(F)cc1)c1ccc2c(c1)OCCO2
(44) C[C@H](NC(=O)[C@H]1N2C(=O)c3ccccc3C2SC1(C)C)C(=O)NCc1ccncc1 (stereo not given in full)
(45) CCOc1ccc(CNC(=O)c2cccc(NC(=O)N3CCSc4ncccc43)c2)cc1OC
(46) COc1ccc(CNC(=O)c2cccc(NC(=O)N3CCSc4ncccc43)c2)cc1
(47) Cc1cccc(CNC(=O)c2cccc(NC(=O)N3CCSc4ncccc43)c2)c1
(48) CCOc1ccc(CNC(=O)c2ccc(NC(=O)N3CCSc4ncccc43)cc2)cc1OC

assay / compound | 41 | 42 | 43 | 44 | 45 | 46 | 47 | 48
TDP1 cell CPT | 16µM* | -12% | 0.92µM* | -15% | 16µM* | ? | 15µM* | ?
uPA generation | 12% | 2% | ? | 2% | / | / | / | /
miR-21 reporter | -11% | -42% | -16% | -1% | 25% | 6% | 5% | -4%
DT40 TDP1 no CPT | 23µM* | ? | 0.92µM* | -9% | 16µM* | ? | ? | ?
TDP1 inh | 5% | 11% | 9% | 4% | 0% | 0% | 8% | 6%
